# Results taken from ChEMBL document CHEMBL4819136, “Design and synthesis of garlic-related unsymmetrical thiosulfonates as potential Alzheimer's disease therapeutics: In vitro and in silico study” (Bioorg Med Chem, 2021).
# Chains of the proteins cited; added tags and fusions are not shown.
# UniProt P06276, whole entry: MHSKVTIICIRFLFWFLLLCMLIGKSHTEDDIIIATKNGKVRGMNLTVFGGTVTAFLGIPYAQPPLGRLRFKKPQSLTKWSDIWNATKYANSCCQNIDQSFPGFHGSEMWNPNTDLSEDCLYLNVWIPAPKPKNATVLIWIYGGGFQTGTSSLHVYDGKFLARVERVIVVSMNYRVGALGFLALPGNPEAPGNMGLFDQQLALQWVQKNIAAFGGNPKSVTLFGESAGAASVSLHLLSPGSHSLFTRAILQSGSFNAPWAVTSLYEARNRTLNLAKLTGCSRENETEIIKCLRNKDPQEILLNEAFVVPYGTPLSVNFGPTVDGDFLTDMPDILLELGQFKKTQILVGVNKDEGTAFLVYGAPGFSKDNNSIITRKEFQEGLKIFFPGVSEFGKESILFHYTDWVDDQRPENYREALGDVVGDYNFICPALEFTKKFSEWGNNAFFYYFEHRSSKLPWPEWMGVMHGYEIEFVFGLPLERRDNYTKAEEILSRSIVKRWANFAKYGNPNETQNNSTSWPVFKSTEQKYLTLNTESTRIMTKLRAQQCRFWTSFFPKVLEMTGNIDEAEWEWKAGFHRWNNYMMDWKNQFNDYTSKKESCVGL
# Target: Cholinesterase (Homo sapiens, UniProt P06276)
# Experiment: Inhibition of human serum BuChE using butyrylthiocholine iodide as substrate preincubated with enzyme for 10 mins followed by substrate addition and measured by Ellman's method
# Format: cell-free
smiles,measurement,value
CCN(C)C(=O)Oc1cccc([C@H](C)N(C)C)c1 [RIVASTIGMINE],IC50,0.0143 µM
